Molecular target: human α7V274T nAChR (Homo sapiens, UniProt P36544, V274T)
Assay: Agonist concentration-response, two-electrode voltage-clamp in Xenopus laevis oocytes

Chains of the proteins cited; added tags and fusions are not shown. Residues count along the entry.
UniProt P36544, 23-502 V274T: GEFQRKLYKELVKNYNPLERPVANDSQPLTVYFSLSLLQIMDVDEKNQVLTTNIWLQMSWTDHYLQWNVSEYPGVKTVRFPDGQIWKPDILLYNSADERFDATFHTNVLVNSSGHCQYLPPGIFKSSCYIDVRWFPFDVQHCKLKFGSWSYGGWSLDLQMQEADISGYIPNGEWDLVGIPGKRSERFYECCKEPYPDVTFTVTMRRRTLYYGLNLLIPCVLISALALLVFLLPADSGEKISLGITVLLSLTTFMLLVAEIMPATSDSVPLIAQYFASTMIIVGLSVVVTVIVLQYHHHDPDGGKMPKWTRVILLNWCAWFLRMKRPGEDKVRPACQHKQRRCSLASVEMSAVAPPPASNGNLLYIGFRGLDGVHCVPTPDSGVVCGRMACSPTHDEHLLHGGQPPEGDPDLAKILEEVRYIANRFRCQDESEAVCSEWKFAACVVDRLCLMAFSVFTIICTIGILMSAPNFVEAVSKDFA

## Cc1ncccc1OC[C@@H]1CCCN1 [ABT-089]
  agonist type: partial agonist
Hill equation fit
  Hill coefficient: 2.3±0.4

From patent US6683157B2, “Variant human α7 acetylcholine receptor subunit, and methods of production and use thereof” (priority 1996, dated 2004)
